The text below walks through data of patent publication US9650423B2, “Long peptides of 22-45 amino acid residues that induce and/or enhance antigen specific immune responses” (priority 2000, dated 2017).

For this experiment, the system named is AR5 tumor cells (E1A+Ras transformed mouse embryo cells). Kind of experiment: Vaccination and AR5 tumor challenge. The conditions noted are these: for protection against tumor challenge: C57/B16 mice, adenovirus E1A+RAS transformed tumor cells; for survival at 50 days after tumor-challenge: n=8, s.c. in IFA day 1, 10 μg epitope or 30 μg 32-mer, 0.5×10^6 AR5 cells 14 days later.

With “RECNSSTDSCDSGPSNTPPEIHPVVRLCPIKP (RECNSSTDSCDSGPSNTPPEIHPVVRLCPIIKP; minimal CTL epitope of adenovirus E1A protein) [32 amino acid long peptide]”, the “protection against tumor challenge” value is listed as “resulted in protection” and the “survival at 50 days after tumor-challenge” value was “all live at 50 days”. Besides, the “mice lost during the 100 day follow-up” value (n=8, 30 μg s.c. in IFA, AR5 challenge 14 days later) is listed as “only one mouse is lost”.

On to “SGPSNTPPEI (minimal E1A-derived CTL epitope) [reference compound]”, for which the “protection against tumor challenge” value was “enhanced tumor outgrowth” and the “survival at 50 days after tumor-challenge” value is listed as “all die within 50 days”.
